In publication PMC3422351, “Lipo-Endomorphin-1 Derivatives with Systemic Activity against Neuropathic Pain without Producing Constipation” (PLoS ONE, 2012):

What was measured:
[1] = tested on: opioid receptors; experiment: Naloxone-sensitivity of antinociception/anti-allodynia in CCI-rats; type: in vivo, rat; conditions: 2 µmol/kg i.v., naloxone hydrochloride 10 mg/kg s.c.
[2] = tested on: CCI-rats; experiment: Assessment of antinociceptive tolerance in CCI-rats; type: in vivo, rat; conditions: 2 µmol/kg i.v. twice-daily, 5 consecutive doses
From the text: At 14 days after CCI surgery, rats (350–400 g) were randomly assigned to one of four treatment groups and administered twice-daily i.v. bolus doses of one test item or vehicle for 5 consecutive doses. Group 1 CCI-rats received compound 3 at 1.6 µmol/kg for all 5 doses whereas group 2 CCI-rats (negative control) received compound 3 at 1.6 µmol/kg followed by vehicle for doses 2–4 with the 5th dose comprising compound 3 at 1.6 µmol/kg. Groups 3 and 4 CCI-rats received 5 consecutive doses of vehicle or morphine (2 µmol/kg), respectively. Paw withdrawal thresholds were measured immediately pre-dose and at the following post-dosing times, viz 0.25, 0.5, 0.75, 1, 1.25, 1.5, 2, and 3 h for doses 1 and 5.

CN1CC[C@]23c4c5ccc(O)c4O[C@H]2[C@@H](O)C=C[C@H]3[C@H]1C5 [morphine]
anti-allodynic effect after naloxone hydrochloride pre-treatment [1]: abolished | potency after the 5th dose relative to the 1st dose [2]: 24%
